Shown are actives, neighbours in structure and some others; about 16% of the full set was active somewhere.
DT40 TDP1 no CPT: qHTS for Inhibitors of human tyrosyl-DNA phosphodiesterase 1 (TDP1): qHTS in cells in absence of CPT; AID 686978, 2013; DT40 Tdp1-/- hTDP1 cells, no CPT, ATP luminescence, 48 h; Potency, µM (series often up to 46.2 µM), actives largely listed as inhibitors; 420,000 tested, 15% active; also: nearly all actives have a fitted effect of over 55% in size
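Camptothecin absent (DMSO only). Human TDP1-complemented DT40 knockout cells, 400 cells/well, 37 °C for minimum 48 hr; ATP measured via CellTiter-Glo, 30 min dark incubation, luminescence.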
uPA generation: inhibitors of cell surface uPA generation; cell surface uPA generation assay, qHTS; Potency, µM (titrated, usually from 38.3 µM), actives largely listed as inhibitors; 330,000 tested, 0.31% active; AID 540303; active = well fitted inhibition curve with a large enough effect; inconclusive = small, poorly fitted or top-dose-only effect; inactive = no such curve, though single readings can be large or run the other way; tested in mouse RAW 264.7 cells; also: nearly all actives have a fitted effect of over 55% in size
TDP1 inh: inhibitors of human tyrosyl-DNA phosphodiesterase TDP1; 350,000 tested, 0.28% active; AID 485290; recombinant TDP1, AlphaScreen DNA substrate cleavage; Q9NUW8; Potency, µM (titrated, usually from 130 µM), hits mostly inhibitors; also: nearly all actives have a fitted effect of over 40% in size
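Tdp1 1 nM final; 15 min RT w/ cpd; substrate 15 nM, 5 min; beads 10 ug/ml, 10 min; AlphaScreen read. Neg ctrl: no enzyme.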
miR-21 reporter: miR-21 reporter, rising signal | HeLa miR-21 FLuc reporter, luciferase, 48 h | Potency, µM (doses to about 38.3 µM) | 340,000 tested, under 10 active | AID 2288; active = well fitted rising curve with a large enough effect; inconclusive = small, poorly fitted or top-dose-only effect; inactive = no such curve, though single readings can be large or run the other way;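 note: miR-21 action dims this reporter so a rising signal means less miR-21 action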
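HeLa miR-21-FLuc reporter line, endogenous miR-21; 2000 cells/well in DMEM/10% FBS; compound titration up to ~40uM final, 48 h, 37 degree Celsius; luciferase detection reagent, 15 min lysis, CCD luminescence.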
TDP1 cell CPT: DT40-hTDP1 cell growth loss with CPT. AID 686979. Potency, µM (highest dose often 46.2 µM), most hits filed as inhibitors. 420,000 tested, 12% active. chicken DT40 Tdp1-/-;hTDP1 cells + 20 nM CPT, ATP luminescence, 48 h; also: nearly all actives have a fitted effect of over 55% in size
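Chicken DT40 Tdp1-/- cells complemented with human TDP1, 400 cells/well, exposed to compounds plus 20 nM camptothecin for at least 48 h at 37 C; viability read as ATP content by CellTiter-Glo luminescence.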
A number is an active result; i = inactive; ? = inconclusive; nt = no result. Unless noted, calls follow the shape of the dose curve; as a rule, active = well fitted curve in the direction sought with a large enough effect; inconclusive = small, poorly fitted or top-dose-only effect, or another doubt; inactive = no such curve, though single readings can be large; an effect the other way counts as inactive or inconclusive.

SMILES | DT40 TDP1 no CPT | uPA generation | TDP1 inh | miR-21 reporter | TDP1 cell CPT
COc1ccc(-c2cc(-c3ccc(Br)cc3)nc3ncnn23)cc1OC | ? | i | i | i | ?
O=C(CN1C(=O)NC(CCc2ccccc2)C1=O)Nc1ccc(F)c(F)c1F (centres undefined) | ? | i | i | nt | 25.9µM
CN(CC(=O)Nc1ccc(F)cc1)C(=O)CN1C(=O)NC(CCc2ccccc2)C1=O (centres undefined) | 25.9µM | nt | nt | nt | 11.6µM
CCCCC1C(=O)CC[C@H]2[C@@H]1CC(=O)[C@@H]2C/C=C\CCCC(=O)O (some centres undefined) | 20.6µM | ? | i | i | ?
CCCCCC1C(=O)CCC1CC(=O)O (centres undefined) | i | nt | i | nt | i
CN(C)c1nn(C(=O)Nc2ccc(Cl)cc2Cl)cc1-c1ccccc1 | i | i | i | i | i
Cc1ccc(NC(=O)N2CCc3cc(S(=O)(=O)N4CCC(C)CC4)ccc32)cc1C | i | nt | i | i | i
Cc1ccc(N(Cc2ccccc2)C(=O)c2ccc(S(=O)(=O)N3CCOCC3)cc2)cc1 | 18.4µM | i | i | nt | ?
Cc1ccc(N(Cc2ccccc2)C(=O)c2cccc(S(=O)(=O)N3CCOCC3)c2)cc1 | 20.6µM | i | i | nt | ?
CC1(C)NC(=O)N(CC(=O)OCC(=O)Nc2sccc2C#N)C1=O | i | i | i | i | i
COC(=O)c1cc(COC(=O)CNC(=O)c2cccc(C)c2)oc1C | i | i | i | nt | i
O=[N+]([O-])c1ccccc1SNc1ccccc1 | i | nt | nt | nt | i
NC(=O)CC(NSc1ccccc1[N+](=O)[O-])C(=O)O (centres undefined) | 18.4µM | i | i | i | 16.4µM
O=C(O)C1CCC(NSc2ccccc2[N+](=O)[O-])CC1 (centres undefined) | 2.59µM | i | i | i | 2.91µM
Cn1nnnc1SCC(=O)Nc1cc(C(=O)O)cc(C(=O)O)c1 | i | nt | i | i | i
CCOC(=O)CNc1nc(-c2ccncc2)nc2ccccc12 | ? | i | i | i | i
Cc1cccc(CN2C3=NCCCN3c3ccccc32)c1 | 14.6µM | i | nt | i | 20.6µM
c1ccc(CN2C3=NCCN3c3ccccc32)cc1 | i | i | i | i | i
OC(CN1C2=NCCN2c2ccccc21)c1ccc2c(c1)OCO2 (centres undefined) | 23.1µM | i | i | ? | ?
COc1ccc(C(=O)CN2C3=NCCCN3c3ccccc32)cc1OC | 16.4µM | i | i | i | 20.6µM
OC(CN1C2=NCCCN2c2ccccc21)c1ccc2c(c1)OCO2 (centres undefined) | i | i | i | i | i
Clc1ccc(CN2C3=NCCN3c3ccccc32)cc1Cl | 16.4µM | i | i | i | ?
Fc1cccc(Cn2cc(C(=S)N3CCCCC3)c3ccccc32)c1 | ? | i | i | i | ?
O=C(COC(=O)COc1ccc(Br)cc1)NCCC1=CCCCC1 | i | i | i | i | i
OCCN1C2=NCCCN2c2ccccc21 | i | i | i | i | i
SMILES | DT40 TDP1 no CPT | uPA generation | TDP1 inh | miR-21 reporter | TDP1 cell CPT
Cc1ccc(C)c(C(=O)CN2C3=NCCCN3c3ccccc32)c1 | ? | i | i | i | 16.4µM
COc1cccc(C(=O)CN2C3=NCCCN3c3ccccc32)c1 | 20.6µM | i | i | i | 20.6µM
C=CCN1C2=NCCCN2c2ccccc21 | i | i | i | i | i
O=C(CN1C2=NCCN2c2ccccc21)C12CC3CC(CC(C3)C1)C2 | 16.4µM | i | i | i | 20.6µM
CCCCCCN1C2=NCCCN2c2ccccc21 | 16.4µM | ? | i | i | 18.4µM
Cc1cc(C)cc(N(C)S(=O)(=O)c2nnc(NC(=O)COc3ccc(Cl)cc3)s2)c1 | i | nt | i | i | i
CCC1(CC)C(=O)NN(c2ccccc2)C1=O | i | i | i | i | i
Cc1ccc(C(=O)N2CCOCC2)cc1S(=O)(=O)Nc1cccc(C)c1C | i | i | i | i | i
CCC(=O)NC(c1ccco1)c1cc(Cl)c2ccccc2c1O (centres undefined) | nt | i | i | nt | nt
CCC(=O)NC(C)c1cc(Cl)c2cccnc2c1O (centres undefined) | nt | ? | i | nt | nt
CCC(=O)NC(c1ccc2c(c1)OCO2)c1cc(Cl)c2cccnc2c1O (centres undefined) | nt | nt | i | nt | nt
CC(=O)NC(c1cccs1)c1cc(F)c2cccnc2c1O (centres undefined) | nt | 5.01µM | i | nt | nt
CCCC(=O)NC(c1cccs1)c1cc(Cl)c2cccnc2c1O (centres undefined) | 2.91µM | i | i | ? | 5.17µM
CCCC(=O)NC(c1ccc2c(c1)OCO2)c1cc(Cl)c2cccnc2c1O (centres undefined) | 3.66µM | i | i | ? | 4.61µM
CCCC(=O)NC(c1ccco1)c1cc(Cl)c2cccnc2c1O (centres undefined) | 4.61µM | i | i | i | 3.66µM
O=C(CCN1C(=O)C2CC=C(Cl)CC2C1=O)N1CCCCC1 (centres undefined) | i | i | i | i | i
Cc1ccc(CN(C)C(=O)c2cc(COc3cccc(C(F)(F)F)c3)on2)o1 | 18.4µM | i | i | i | ?
Cc1ccc(CN(C)C(=O)c2cc(COc3ccc(F)cc3Cl)on2)o1 | i | i | i | i | ?
CSc1ccccc1OCc1cc(C(=O)N(Cc2nccn2C)C(C)C)no1 | ? | i | i | i | 18.4µM
CC(NC(=O)c1cc(COc2cccc(C(F)(F)F)c2)on1)c1nccs1 (centres undefined) | ? | ? | i | i | i
CC(C)N(Cc1nccn1C)C(=O)c1cc(COc2cccc(C(F)(F)F)c2)on1 | 13µM | i | i | i | 16.4µM
CCn1ccnc1CN(C)C(=O)c1cc(COc2ccccc2SC)on1 | i | i | i | i | ?
Cc1cc(OCc2cc(C(=O)N(Cc3nccn3C)C(C)C)no2)cc(C)c1Cl | 6.51µM | i | i | i | 16.4µM
Cc1cc(OCc2cc(C(=O)N(C)C3CCOCC3)no2)cc(C)c1Cl | ? | i | i | i | ?
O=C(Cc1ccccc1)Nc1ccc(N2CCN(Cc3ccccc3F)CC2)cc1 | i | i | i | i | i
SMILES | DT40 TDP1 no CPT | uPA generation | TDP1 inh | miR-21 reporter | TDP1 cell CPT
O=C(NCCN1CCNC1=O)C1CCC(=O)N(CCc2ccccc2)C1 (centres undefined) | i | i | i | i | i
O=C(Nc1nccs1)c1ccc(NC(=O)c2ccco2)cc1 | ? | i | i | i | i
O=C(O)COc1ccc(/C=N/n2cnc3scc(-c4cccs4)c3c2=O)cc1 | i | i | i | i | i
CCOC(=O)c1cnc2ccc(C(=O)OC)cc2c1Nc1ccc2c(c1)OCCO2 | ? | i | i | i | ?
CCOC(=O)c1ccc2ncc(C(=O)OCC)c(Nc3ccc(N4CCOCC4)cc3)c2c1 | 6.51µM | i | i | i | 10.3µM
CCOC(=O)c1cnc2ccccc2c1Nc1ccc(N2CCOCC2)cc1 | i | nt | nt | i | ?

Screening results (PubChem)
